According to patent US20230365554A1, “SUBSTITUTED PYRROLO-PYRIDINONE DERIVATIVES AND THERAPEUTIC USES THEREOF” (The Broad Institute, Inc., priority 2020, published 2023):
Values joined by “and” are separate entries in the source; they are usually repeats but may differ in a detail not shown here. Equal values may be shown once.

Amino acid sequences for entries named in this document (tags omitted).
UniProt P48729, whole entry: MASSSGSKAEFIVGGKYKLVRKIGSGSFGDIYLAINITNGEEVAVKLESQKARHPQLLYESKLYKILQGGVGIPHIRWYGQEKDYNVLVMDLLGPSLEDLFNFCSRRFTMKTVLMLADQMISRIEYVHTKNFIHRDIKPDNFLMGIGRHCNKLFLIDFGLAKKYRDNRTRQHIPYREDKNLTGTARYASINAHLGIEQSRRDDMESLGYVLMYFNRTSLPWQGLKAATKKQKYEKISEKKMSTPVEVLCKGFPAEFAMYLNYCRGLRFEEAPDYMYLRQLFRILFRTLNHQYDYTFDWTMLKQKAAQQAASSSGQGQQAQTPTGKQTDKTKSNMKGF

Biological target: human CSNK1A1 (Homo sapiens (Human), UniProt P48729)
Assay: CSNK1A1 Assay 1 (ADP-Glo, 1 μM ATP)
Settings: read-out: CSNK1A1 Assay 1 IC50 [mol/l] (median), median or individual measurements, Table 4, WO 2016/120196 comparison compounds
Procedure: CSNK1A1-inhibitory activity of compounds of the present invention in presence of 1 μM adenosine-tri-phosphate (ATP) was quantified employing the CSNK1A1 assay as described in the following paragraphs. In essence, the enzyme activity is measured by quantification of the adenosine-di-phosphate (ADP), which is generated as a co-product of the enzyme reaction, via the “ADP-Glo™ Kinase Assay” kit from the company Promega. This detection system works as follows: In a first step the ATP not consumed in the kinase reaction is quantitatively converted to cAMP employing an adenylate cyclase (“ADP-Glo-reagent”), then the adenylate cyclase is stopped and the ADP generated in the kinase reaction converted to ATP which generates in a luciferase-based reaction a glow-luminescence signal (“Kinase Detection Reagent”).
Recombinant fusion protein of N-terminal Glutathion-S-Transferase (GST) and full-length human CSNK1A1, expressed by baculovirus infected insect cells and purified via Glutathion affinity chromatography, was purchased from Life Technologies (product no. PV4174) and used as enzyme. As substrate for the kinase reaction the biotinylated peptide Btn-Ahx-SGSEGDSESGEEEG (C-terminus in amide form) was used which can be purchased e.g. from the company Biosyntan (Berlin-Buch, Germany). […]

- IC50: < 3.4 nM and 10 nM and 5.6 nM
Compound: CN1CCc2[nH]c(-c3ccnc(NC(=O)C4CC4)c3)c(Nc3ccccc3)c2C1=O
